How the values were obtained:
[1] = test system: human RIG-1 promoter (RIG-PROM-LUC reporter); experiment: RIG-PROM-LUC luciferase reporter activity in response to inducers in transfected human cells; format: cell-based
[2] = test system: RIG-PROM-LUC construct mutated in the IRF-1 binding site; experiment: mutant IRF-1 RIG-PROM-LUC luciferase reporter activity in response to inducers; format: cell-based, human; settings: p69, DU-145 and HeLa cells; IFN-β 2000 units/ml, Adnull 100 pfu; FIG. 5A-C

“IFN-β: β-interferon, Type-I interferon used as inducer at 100-2000 units/ml” was tested, and the “inducibility of reporter over control” value ([1]; 70 W human melanoma cells, overall promoter activity much lower, FIG. 4) was “statistically significant inducibility over control”, the “activation of promoter activity (RIG-PROM-LUC)” value ([1]; FM516 and HeLa cells, IFN-β induction greater than PolyIC:PolyIC and least with retinoic acid, FIG. 2) was “robust activation” and the “induction of full length RIG-PROM-LUC reporter activity over control” value ([1]; p69, DU-145 and HeLa cells, IFN-β 2000 units/ml, Adnull 100 pfu, FIG. 5A-C) was 3-7 fold. For the same substance, the induction of reporter ([1]; p69 immortalized human prostate epithelial cells, FIG. 4) was 3 fold and the “effect on activity of mutant IRF-1 RIG-PROM-LUC reporter” value [2] was “did not affect”.
